# What was measured:
# NCI-N87 cells [1] = test: Cell based binding of HER2 ADCs by flow cytometry; design: species or system human
# SK-BR-3 cells = test: Cell based binding of HER2 ADCs by flow cytometry; design: species or system human
# BT-474 cells [2] = test: Cell based binding of HER2 ADCs by flow cytometry; design: species or system human
# JIMT-1 cells = test: Cell based binding of HER2 ADCs by flow cytometry; design: species or system human
# MDA-MB-231 cells = test: Cell based binding of HER2 ADCs by flow cytometry; design: species or system human; details: Example 3
# Protocol: Briefly, The NCI-N87, SK-BR-3, BT-474, JIMT-1, MDA-MB-231 and MDA-MB-468 cells were incubated with titrated antibody drug conjugates (from 100 nM, 5 folds dilution, 8 points) at 4° C. for 60 minutes. Then cells were washed with FACS buffer twice and stained with fluorescent conjugated secondary antibody (Alexa Fluor® 647 Goat Anti-Human IgG, Jackson, 109-605-098) at 4° C. for 60 minutes. After that the cells were washed twice and analyzed by flow cytometry.
# MDA-MB-468 cells = test: Cell based binding of HER2 ADCs by flow cytometry; design: species or system human
# NCI-N87 cells [3] = test: Cytotoxicity of HER2 ADCs (CellTiter-Glo Luminescent Cell Viability Assay); type: cell-based, human
# BT-474 cells [4] = test: as above; type: cell-based, human
substance,measurement,setting,value
Trastuzumab-DXd,Max,NCI-N87 cells [1]; Example 2,276178 MFI
same,EC50,"NCI-N87 cells [1]; Example 2, 4° C., 60 minutes",2.96 nM
same,Max,NCI-N87 cells [1]; Example 3,215714 MFI
same,EC50,NCI-N87 cells [1]; Example 3 (DAR comparison),3.42 nM
same,EC50,SK-BR-3 cells; Example 2,3.02 nM
same,Max,SK-BR-3 cells; Example 2,220188 MFI
same,EC50,SK-BR-3 cells; Example 3,4.62 nM
same,Max,SK-BR-3 cells; Example 3,185879 MFI
same,EC50,BT-474 cells [2]; Example 2,4.89 nM
same,Max,BT-474 cells [2]; Example 2,161192 MFI
same,EC50,BT-474 cells [2]; Example 3,2.81 nM
same,Max,BT-474 cells [2]; Example 3,174842 MFI
same,EC50,JIMT-1 cells; Example 2,1.62 nM
same,Max,JIMT-1 cells; Example 2,31787 MFI
same,EC50,JIMT-1 cells; Example 3,1.35 nM
same,Max,JIMT-1 cells; Example 3,31720 MFI
same,EC50,MDA-MB-231 cells,1.57 nM
same,Max,MDA-MB-231 cells,2913 MFI
same,Max,MDA-MB-468 cells; Example 2,115 MFI
same,Max,MDA-MB-468 cells; Example 3,146 MFI
same,IC50,"NCI-N87 cells [3]; Example 4, 6 days",0.246 nM
same,IC50,"NCI-N87 cells [3]; Example 5 (DAR comparison), 6 days",0.285 nM
same,IC50,"BT-474 cells [4]; Example 4, 6 days",0.059 nM
same,IC50,"BT-474 cells [4]; Example 5, 6 days",0.06 nM

# Source: patent US12291537B2, “Compounds, compositions and methods” (priority 2022, dated 2025)
